Experimental data from patent publication US5292868A, “Chelating agents for attaching metal ions to proteins” (Akzo N.V., priority 1993, dated 1994).

Test: Stability of In-111 labeled HSA-chelate conjugates by DTPA chase technique in PBS at 37° C.
Format: physicochemical
Conditions: HSA-IDAC and HSA-DTPA, 0.05M PBS pH 7.2, DTPA chase
Description: Under similar experimental conditions, HSA-DTPA-^111 In loses ^111 In at the rate of 10% per day. […] However, IDAC can be used for short lived isotopes such as ^99m Tc and ^55 Co (half-life approximately 6h.), since in these cases short term stability is more important.
For stability studies, HSA-IDAC or HSA-LiLo conjugate was first prepared by reacting HSA (30 mg/ml, 0.05M PBS solution, pH7.2) with LiLo or IDAC (HSA: LiLo/IDAC molar ratio 1:10) at 37° C. for 2 hours. Unbound chelate was removed by gel filtration chromatography (G-50 Sephadex, Pharmacia). The conjugate (HSA-LiLo, HSA-IDAC) was collected and the concentration of the protein determined by absorption at 280 nm. […]
The conjugate was labeled with In-111 in a buffer (0.05M citrate/0.5 M acetate, pH 5.5) DTPA was added to bind any unbound Indium-111, and the labelled conjugate was purified by G-50 or G-25 gel filtration chromatography. The purity of the immunoconjugate was determined by ITLC in PBS buffer using Gelman ITLC-SG chromatography paper.
Stability studies were carried out in 0.05M PBS buffer pH 7.2 at 37° C. […] Thin layer chromatography analysis using ITLC-SG strip (Gelman Sciences) in PBS buffer (0.05M, pH 7.2) was carried out, and the ITLC strip was cut into two pieces, and the indium (111) activity was determined using a gamma counter. […]

| Substance | rate of loss of 111In from HSA conjugate |
| --- | --- |
| HSA-DTPA-^111 In: human serum albumin reacted with DTPA dianhydride, labeled with Indium-111 [reference compound] | 10 % per day |
| HSA-IDAC-^111 In: human serum albumin conjugated with IDAC, labeled with Indium-111 | approximately 20 % per day |
